# According to US4490363A, “Metorphamide--a novel morphine-like peptide” (Board of Trustees of The Leland Stanford Junior University …, priority 1983, dated 1984):
# Sequences of proteins named here, by UniProt entry; tags and fusion partners are left off. A change or cut given only in a name is not applied to a line headed by its entry.
# UniProt P41144: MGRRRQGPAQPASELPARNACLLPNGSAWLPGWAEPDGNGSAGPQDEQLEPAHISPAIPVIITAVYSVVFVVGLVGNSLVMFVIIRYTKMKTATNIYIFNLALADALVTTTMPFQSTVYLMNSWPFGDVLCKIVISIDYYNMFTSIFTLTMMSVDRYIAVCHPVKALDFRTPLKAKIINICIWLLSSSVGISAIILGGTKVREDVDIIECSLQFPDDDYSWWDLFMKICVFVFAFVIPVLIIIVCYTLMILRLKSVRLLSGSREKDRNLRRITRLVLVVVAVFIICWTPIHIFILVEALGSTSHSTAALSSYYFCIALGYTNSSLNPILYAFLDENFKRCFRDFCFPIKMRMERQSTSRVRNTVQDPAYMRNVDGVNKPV
# Target: T1, κ-site (Cavia porcellus, UniProt P41144)
# T1 construct: The assays used homogenates of guinea-pig brain; from tissue; host or cells: guinea pig brain homogenate
# Assay: Binding assay in guinea pig brain homogenates, [3H]-(-)-bremazocine after suppression of μ- and δ-binding
compound,measurement,value
"CSCC[C@H](NC(=O)[C@H](Cc1ccccc1)NC(=O)CNC(=O)CNC(=O)[C@@H](N)Cc1ccc(O)cc1)C(=O)N[C@@H](CCCNC(=N)N)C(=O)O [B, [Met^5]enkephalylArg]",Ki,544 ± 22 nM
